In PubChem BioAssay AID588850 (Sanford-Burnham Center for Chemical Genomics, 2011):
This is a selection; strong and weak results do not stand in their true shares. Active and inactive are the calls of the source.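 How the source made its calls: active means at least 50% inhibition at 5 µM, scaled per plate between neutral and stimulator controls; inactive means the rest.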

test: NF-kB reporter blockers in CF airway cells – cell-based, GFP fluorescence, uHTS, primary screen (AID 588850); conditions: KKLEB NF-kB-GFP reporter, PAF-induced, GFP fluorescence overnight; at 5 µM; active compounds read high;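 further: PAF is a Pseudomonas aeruginosa culture filtrate used as stimulus; plate controls were PAF-stimulated DMSO wells for no effect and unstimulated DMSO wells for full effect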

Row | Compound | inhibition
1 | CCC(=O)N(c1ccccc1)C1(COC)CCN(CCc2cccs2)CC1 | inactive: -18.4%
2 | CCC(=O)N(c1ccccc1)C1(COC)CCN(CCn2nnn(CC)c2=O)CC1 | inactive: -6.9%
